Test results reported in ChEMBL document CHEMBL5143721, “Novel Hydroxychalcone-Based Dual Inhibitors of Aldose Reductase and α-Glucosidase as Potential Therapeutic Agents against Diabetes Mellitus and Its Complications” (J Med Chem, 2022).

Key:
[1] = Antioxidant activity assessed as DPPH radical scavenging activity at 100 uM incubated for 30 mins by DPPH assay relative to control; assay type: functional
[2] = Antioxidant activity assessed as DPPH radical scavenging activity at 50 uM incubated for 30 mins by DPPH assay relative to control; assay type: functional

What does the source list for `Cc1c(C)c2c(c(C)c1O)CCC(C)(C(=O)O)O2` (configuration not stated)?
Activity [1]: 98%; Activity [2]: 94.4%
